Only a part is listed here, and it is no random draw. The source made the active and inactive calls.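 How the source made its calls: active means growth inhibition above 90% in viable cell count at a single dose; inactive means growth inhibition below 90%.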

The assay can be described thus: HT29 colon tumor cell growth inhibition, primary screen, imaging, high content imaging, 24 h, CellTiter-Glo (AID 770). To be noted: HT29 cell number by imaging, at 10 µM, active compounds read high.
As for `CCN(CC)CC(O)COC(=O)C(O)(c1ccccc1)C1CCCCC1` (stereo unspecified), the growth inhibition is inactive: 26.7%.

Values taken from PubChem BioAssay AID770 (SRMLSC, 2007).
